Values quoted from earlier work in patent US5070187A, “Pharmacologically effective antagonists of arginine-vasopressin” (priority 1989, dated 1991).
Read-outs that look alike come from different tables or passages of the source.

Experiments:
vasopressin V2 receptor = target: T1, vasopressin V2 receptor (Homo sapiens, UniProt P30518); conditions: Huffman et al., J. Med. Chem. 32:880-884 (1989)
T1 construct: evaluation in human volunteers of a potent vasopressin V2 receptor antagonist; host or cells: human volunteers (in vivo)

[1] = in vivo

| Substance | V2 behaviour in human volunteers, in words (vasopressin V2 receptor) | V2 behaviour in human volunteers, in words (vasopressin V2 receptor; listed as [1-(1-mercaptocyclohexaneacetic acid)-2-(O-ethyl-D-tyrosine), 4-valine, -desglyc) | half-life of circulating vasopressin [1] |
| --- | --- | --- | --- |
| [1-(1-mercaptocyclohexaneacetic acid),2-(0-ethyl-D-tyrosine),4-valine,9-desglycine]-8-arginine vasopressin | behaved as a V2 agonist rather than a V2 antagonist | behaved as a V2 agonist rather than V2 antagonist | – |
| [8-arginine]-vasopressin | – | – | approximately 20 minutes |
